{"source": "patent US6833443B1", "about": "“Gymnemic acid derivatives, process for the preparation thereof and use thereof as medicine” (Guilin Jiqi Pharmaceutical Co., Ltd., priority 1999, dated 2004)", "test_system": "hyperlipidemia rats", "assay": "Effect of compound B on TG and cholesterol in serum of hyperlipidemia rats", "assay_type": "in vivo, rat", "details": "dose 100 mg/kg", "procedure": "The effect of compound B on the contents of TG, cholesterol in the serum of hypertipidemia rats.\nMale SD rats with a weight of 130-170 g, normal group, was given common food. Other groups were given food having high lipid content (1%cholesterol, 10%lard, 0.3% cholic acid, 0.2% methylthio imidazole and 88.5% common forage, made into a block.). For 14 sequential days, rats fasted for 12 hours were measured by reagent box method to obtain the contents of TG and cholesterol in serum. Then they were divided according to the value of blood fat content into different group. The experimental group was given 50, 100. 200 mg/kg compound B, the positive-control group was given clofibrate 100 mg/kg, and the control group was given water. The given medicine volume was 10 ml/kg, for 10 days, each group was still given high fat forage for 5 days before being given medicine, and common forage was given in the later 5 days. The rats were fasted for 11 hours before being given the final administration and blood of each rat was extracted to obtain the content of TG and cholesterol in serum 1 hour after being given medicine.", "data": [{"smiles": "CCOC(=O)C(C)(C)Oc1ccc(Cl)cc1", "note": "[clofibrate]", "values": [{"measurement": "TG, after administration", "setting": "10 days", "value": "2.72 ± 0.74", "unit": "mmol/L"}, {"measurement": "Total cholesterol, after administration", "setting": "10 days", "value": "2.15 ± 0.76", "unit": "mmol/L"}, {"measurement": "TG, before administration", "setting": "baseline", "value": "2.51 ± 0.77", "unit": "mmol/L"}, {"measurement": "Total cholesterol, before administration", "setting": "baseline", "value": "4.33 ± 0.51", "unit": "mmol/L"}]}]}
